Values quoted from earlier work as cited in paper PMC12627723, “Antineoplastic 4-piperidone-1-phosphonothioates with potential multi-targeted inhibitory properties” (Scientific Reports, 2025).

System: A431 (skin/squamous) cancer cell line
Conditions: read-out: IC50, (µM) ± SEM, A431 (standard drugs); standard reference drugs

IC50: 23.4 ± 2.09 µM
Compound: O=c1[nH]cc(F)c(=O)[nH]1 [5-Fluorouracil]
